The test system of one test is Dopamine. Put plainly: Dopamine in brain (kinetic spectrophotometric), reserpine Parkinson's model. Format: in vivo, rat. The settings on record: 25 mg/kg, p.o. + Reserpine (4 mg/kg, s.c.), Mean ± SEM, n = 6. The source says: (§1) The induction of Parkinson's disease and measurement of other parameters were done as per the reported protocol (Santos et al., Cognitive, motor and tyrosine hydroxylase temporal impairment in a model of parkinsonism induced by reserpine. Behav Brain Res. 2013; 253:68-77 and Shishehbore et al. A novel kinetic spectrophotometric method for the determination of dopamine in biological and pharmaceutical samples. J Chem. 2013; 2013:1-6). Induction of Parkinson's disease was done by administering Resperine, which inhibits the monoamine vesicular transporters, thus decreasing the levels of monoamine neurotransmitters in the brain. Following pretreatment for 14 days with Gingerenone A, the rat groups received subcutaneous injections of reserpine (4 mg/kg) for the final five days of the treatment regimen. Resperine (5 mg) was dissolved in 1 ml of 1% acetic acid and then diluted tenfold with distilled water to achieve a final concentration of 500 μg/ml. […]
Dopamine—Studies have shown that symptoms of Parkinson's develop in patients with an 80 percent or greater loss of dopamine-producing cells in the substantia nigra. […] The change in absorbance was recorded spectrophotometrically at 601 nm (Shishehbore et al., Novel Kinetic Spectrophotometric Method for the Determination of Dopamine in Biological and Pharmaceutical Samples. 2013. Article ID 819460, https://doi.org/10.1155/2013/819460).

The subject of a further test is substantia nigra. Put plainly: Brain histopathology of substantia nigra, reserpine Parkinson's model. Format: in vivo, rat. As to conditions: 25 mg/kg, p.o., FIG. 15.
Text: The brain histopathology was done for all the experimental groups. The brain tissue was fixed in 10% buffered neutral formalin solution. The tissue was embedded in paraffin, sectioned at […] stained with hematoxylin and eosin (H&E). The sections were examined under light microscope to study the architecture of the brain tissue, and then photomicrographs were taken (Fischer A H, Jacobson K A, Rose J, Zeller R. Hematoxylin and eosin staining of tissue and cell sections. CSH Protoc. 2008:1;pdb.prot4986. doi: 10.1101/pdb.prot4986).
as §1, with “regimen.” for “regimen. Resperine (5 mg) was dissolved in 1 ml of 1% acetic acid and then diluted tenfold with distilled water to achieve a final concentration of 500 μg/ml.”

Consider `C[C@@](Cc1ccc(O)c(O)c1)(NN)C(=O)O` [Carbidopa, reference compound], for which the Dopamine with Dopamine was 0.148 ± 0.037 µg/mL. Besides, in the test with substantia nigra, the “histopathology of substantia nigra” value is “both normal [FIG. 15A—Arrow] and degenerative neuronal cells having dark nucleus with mild basophilic cytoplasm [FIG. 15B—Arrow]. Mild inflammation noted at places and the neuropils had focal vacuoles”.
